How the values were obtained:
[1] = test system: cultured EGFR-expressing tumor lines; details: cited from earlier work
[2] = test system: EGFR-expressing tumor xenografts; details: mouse; cited from earlier work
Molt-4 and SK-MEL-28 = assay: C225-DOX inhibition of proliferation, EGFR non-expressing cell lines; assay type: cell-based
Procedure: (§1) EGF receptor expression was verified by FACS analysis using C225 and C225-DOX conjugate. Assays were conducted over a 72 h incubation period using ^3[H]-thymidine and WST-1 as a read out. […] Inhibition of cell proliferation by C225DOX was also seen in EGFRc nonexpressing cell lines at higher doses.

[3] = test system: A431, KB and MDA-468 cells; assay: C225-DOX inhibition of proliferation, EGFR expressing cell lines (3H-thymidine, WST-1); assay type: cell-based
Procedure: as §1

Substance | growth of cultured EGFR-expressing tumor lines [1] | growth of these tumors in vivo as xenografts [2] | inhibition in EGFRc-negative cell lines lower than in EGFRc-positive cell lines (Molt-4 and SK-MEL-28) | inhibition of cell proliferation compared to no treatment or hIgG1 controls ([3]; 72 h incubation) | higher inhibition versus equimolar doxorubicin alone or mixtures of C225 and doxorubicin ([3]; equimolar concentrations)
225: murine monoclonal antibody that binds to the EGF receptor; hybridoma ATCC HB 11935 [compound 225] | able to inhibit the growth | able to inhibit the growth | – | – | –
C225-DOX | – | – | 5–15 fold | high inhibition of cell proliferation | 4–5 fold

From patent US7060808B1, “Humanized anti-EGF receptor monoclonal antibody” (ImClone Systems Incorporated, priority 1995, dated 2006)
